Nrf2 ARE act: activates Nrf2 signaling | AREc32 ARE-luciferase reporter (MCF7-derived line), luminescence, 24 h | AID 624171 | 0.31% of 410,000 active | Potency, µM (titrated, usually from 46.1 µM), for the others: at the top dose activation, actives largely listed as activators; further: potency means the concentration at half of the fitted maximal effect; % of control where 0% means no effect; nearly all actives have a fitted effect of over 65% in size
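Luciferase luminescence (Steady-Glo, 30 min at room temperature) served as the read-out of ARE activation in AREc32 cells treated with compounds for 24 hr at 37 deg C.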
A549 tox: counter-screen for Nrf2 inhibitors: cytotoxicity in A549 cells | Potency, µM (highest dose often 46 µM), for inactives: at the top dose activity change, negative = cytotoxicity, most hits filed as inhibitors | A549 ARE-Fluc cells, CellTiter-Fluor viability, 18-24 h | AID 504648 | 0.16% of 390,000 active; further: potency means the concentration at half of the fitted maximal effect; on the % scale 0 is the no-effect control and ±100 the full control effect
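A549 ARE_Fluc cells in 5% FBS OPTI-MEM were exposed to compounds in concentration-response for 18-24 h at 37 deg C. Viability was read by CellTiter-Fluor fluorescence (Ex 405/Em 525) after 30 min, before the luciferase read.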
B2AR arrestin: agonists driving beta-arrestin recruitment to human beta2-adrenergic receptor; 0.02% of 330,000 active; Potency, µM (series often up to 46.1 µM), without a hit: at the top dose activation, actives largely listed as activators; AID 492947; beta-arrestin recruitment to beta2AR, cell-based reporter;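 further: potency means the concentration at half of the fitted maximal effect; 0% = DMSO controls and full agonism = EC100 isoproterenol or metaproterenol; nearly all actives have a fitted effect of over 65% in size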
miR-21 reporter: miR-21 reporter, rising signal. HeLa miR-21 FLuc reporter, luciferase, 48 h. Potency, µM (highest dose often 38.3 µM), for the others: at the highest dose reporter change, positive = more light. 340,000 tested, under 10 active. AID 2288; active = well fitted rising curve with a large enough effect; inconclusive = small, poorly fitted or top-dose-only effect; inactive = no such curve, though single readings can be large or run the other way;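 further: % of control where 0% means no effect; miR-21 action dims this reporter so a rising signal means less miR-21 action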
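HeLa cells endogenously expressing miR-21, stably carrying CMV-driven firefly luciferase with a downstream miR-21 binding site, 2000 cells/well. Titrations up to approximately 40 uM, 48 hours; luciferase luminescence read.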
Nrf2 block: Nrf2 pathway inhibition; A549 ARE-Fluc reporter, luciferase luminescence, 18-24 h; Potency, µM (series often up to 46 µM), without a hit: at the top dose activity change, negative = inhibition, usual class: inhibitors; 2.1% of 360,000 active; further: potency means the concentration at half of the fitted maximal effect; on the % scale 0 is the no-effect control and ±100 the full control effect; nearly all actives have a fitted effect of over 60% in size
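Two sequential reads on A549 ARE_Fluc cells exposed to compound for 18-24 h: a CellTiter-Fluor fluorescence read for viability, then a luciferase luminescence read for Nrf2/ARE activity.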
An asterisk follows results filed as active; ? = inconclusive; nt = no result given. Compounds with a hit are over-represented: about 2.2% of the library has one in this group of screens. The call rests on the fitted dose curve; in most records, active means well fitted curve in the direction sought with a large enough effect; inconclusive means small, poorly fitted or top-dose-only effect, or another doubt; inactive means no such curve, though single readings can be large; an effect the other way counts as inactive or inconclusive.

1: Cc1ccc2nsnc2c1NC(=O)c1ccc(-c2cc(Cl)ccc2Cl)o1
2: COc1ccc(O)c(-c2nc3ccccc3c(=O)n2Cc2ccccc2)c1
3: C=Cc1ccc(CSc2nc(-c3ccc(OC)cc3)nc3c2Cc2c(CO)cnc(C)c2O3)cc1
4: COc1cc(/C=C2\SC(=S)N(NC(=O)c3ccncc3)C2=O)ccc1O
5: COc1ccc(S(=O)(=O)NC2CCN(C#N)CC2)cc1
assay / compound	1	2	3	4	5
Nrf2 ARE act	4.9%	nt	0.2%	0.3%	nt
A549 tox	9.2µM*	-7.7%	2.8%	20.6µM*	-4.6%
B2AR arrestin	-0.3%	nt	nt	-1.0%	nt
miR-21 reporter	-0.6%	nt	-3.7%	0.7%	nt
Nrf2 block	13µM*	15.3%	25.8%	?	1.2%

6: Clc1ncc(C#Cc2ccccc2)c2ncncc12
7: CN(c1ccccc1)c1ccc(/C=N/NC(=O)CC#N)cc1
8: N#CCC(=O)N/N=C/c1ccc(Cl)cc1
9: CC(C)c1ccc(C(O)P(=O)(OC2CCCCC2)OC2CCCCC2)cc1 (stereo unspecified)
10: COc1cc(C(O)P(=O)(OC2CCCCC2)c2ccc(N(C)C)cc2)cc(OC)c1OC (stereo unspecified)
assay / compound	6	7	8	9	10
Nrf2 ARE act	nt	3.9%	5.5%	0.2%	-0.6%
A549 tox	-1.0%	1.6%	6.4%	?	1.0%
B2AR arrestin	nt	1.3µM*	0.2%	-0.1%	-0.1%
miR-21 reporter	nt	1.0%	5.1%	20.0%	-3.4%
Nrf2 block	19.9%	-10.8%	7.2%	16.4µM*	0.3%

11: Cc1ccc(NC(=O)c2cc(NC(=O)CCC(=O)O)ccc2N2CCCCC2)cc1
12: CCC(=O)Nc1ccc(N2CCCCC2)c(C(=O)Nc2ccc(OC)cc2)c1
13: Cc1ccc(C)c(N2CCN(C(=O)CCS(=O)(=O)c3cc(Br)cc4c3N(C(=O)C3CC3)CC4)CC2)c1
14: Cc1cc(N/N=C/c2c(O)ccc3ccccc23)nc(-c2ccccc2O)n1
15: Oc1ccc2ccccc2c1/C=N/Nc1ccccc1
assay / compound	11	12	13	14	15
Nrf2 ARE act	-0.8%	2.8%	0.1%	7.08µM*	7.8%
A549 tox	0.2%	-15.2%	0.1%	?	-2.2%
B2AR arrestin	0.1%	-0.4%	nt	0.0%	0.1%
miR-21 reporter	1.3%	16.4%	-0.6%	-7.9%	-28.1%
Nrf2 block	10.4%	18.4µM*	-21.6%	?	2.5%

16: Cc1ccc(-c2csc(N3CCC(C(N)=O)CC3)n2)cc1
17: Cc1ccc(-c2csc(N3CCC(NS(=O)(=O)c4ccc5c(c4)OCCO5)CC3)n2)cc1
18: CN(C(=O)c1ccc(Oc2ccc([N+](=O)[O-])cc2)cc1)C1CCCCC1
19: COc1ccc(CCNCC(O)Cn2c3ccccc3c3ccccc32)cc1OC (stereo unspecified)
20: COc1ccccc1NCC(O)Cn1c2ccccc2c2ccccc21 (stereo unspecified)
assay / compound	16	17	18	19	20
Nrf2 ARE act	2.8%	6.5%	6.2%	-3.8%	2.1%
A549 tox	9.3%	?	-7.7%	-1.1%	20.6µM*
B2AR arrestin	-0.2%	-0.3%	-0.8%	-0.1%	0.2%
miR-21 reporter	nt	?	19.3%	?	-0.1%
Nrf2 block	9.2%	14.6µM*	25.9µM*	?	?

3 structures out of the list, sorted by length of the SMILES, lowest first.
15: Oc1ccc2ccccc2c1/C=N/Nc1ccccc1
19: COc1ccc(CCNCC(O)Cn2c3ccccc3c3ccccc32)cc1OC (stereo unspecified)
18: CN(C(=O)c1ccc(Oc2ccc([N+](=O)[O-])cc2)cc1)C1CCCCC1
assay / compound	15	19	18
Nrf2 ARE act	7.8%	-3.8%	6.2%
A549 tox	-2.2%	-1.1%	-7.7%
B2AR arrestin	0.1%	-0.1%	-0.8%
miR-21 reporter	-28.1%	?	19.3%
Nrf2 block	2.5%	?	25.9µM*

(cont.)
21: COc1ccc(Cn2ncc3c4sc(C)cc4n(C)c3c2=O)cc1F
22: N#C/C(=C\c1ccc(Oc2ccc(C(F)(F)F)cc2[N+](=O)[O-])cc1)c1nc2ccccc2[nH]1
23: O=C(Cc1ccccc1)NCC(=O)OCC(=O)c1ccc2ccccc2c1
24: O=C(NC1CCCCC1)C(c1ccc2ncccc2c1)N(Cc1ccccc1)C(=O)c1cccs1 (stereo unspecified)
25: COc1ccc(CN(C(=O)c2cccs2)C(C(=O)NC2CCCCC2)c2ccc3ncccc3c2)cc1 (stereo unspecified)
assay / compound	21	22	23	24	25
Nrf2 ARE act	nt	3.7%	nt	2.6%	2.8%
A549 tox	-1.8%	?	-1.1%	-26.5%	-5.2%
B2AR arrestin	nt	-0.7%	nt	0.9%	0.2%
miR-21 reporter	nt	-16.0%	nt	-1.5%	1.9%
Nrf2 block	2.9%	16.4µM*	1.1%	18.4µM*	-6.2%

26: CC(C)c1ccc(NC(=O)c2cc(Br)ccc2Br)cc1
27: Cc1ccccc1NC(=O)CCn1nc(-c2ccccc2)c2ccccc2c1=O
28: COc1cc(OC)c(OC)cc1/C=C1\CCC/C(=C\c2cc(OC)c(OC)cc2OC)C1=O
29: COc1ccc(/C=C2\CCC/C(=C\c3ccc(OC)c(OC)c3OC)C2=O)c(OC)c1OC
30: COc1ccccc1CNC(=O)[C@H](C)N1C(=O)N2CCc3c([nH]c4ccccc34)[C@@]2(C)C1=O
assay / compound	26	27	28	29	30
Nrf2 ARE act	7.08µM*	3.8%	23.7%	16.6%	5.6%
A549 tox	?	3.8%	?	?	?
B2AR arrestin	0.2%	nt	-1.1%	-1.0%	-1.0%
miR-21 reporter	-31.8%	0.6%	-2.2%	-1.5%	16.2%
Nrf2 block	15.3%	nt	?	8.2µM*	23.1µM*

Bioassay records: PubChem, National Center for Advancing Translational Sciences (NCATS)
